Data reported in ChEMBL document CHEMBL5053528, “Discovery of 2-(Ortho-Substituted Benzyl)-Indole Derivatives as Potent and Orally Bioavailable RORγ Agonists with Antitumor Activity” (J Med Chem, 2021).
The source made the active and inactive calls. No cut-off for these calls is given here.

Assays:
[1] = biological target: T1, Nuclear receptor ROR-alpha (Homo sapiens) (UniProt P35398); test: Agonist activity at human RORalpha at up to 3 uM by nuclear reporter assay; conditions: filed as agonist
T1 sequence (whole entry): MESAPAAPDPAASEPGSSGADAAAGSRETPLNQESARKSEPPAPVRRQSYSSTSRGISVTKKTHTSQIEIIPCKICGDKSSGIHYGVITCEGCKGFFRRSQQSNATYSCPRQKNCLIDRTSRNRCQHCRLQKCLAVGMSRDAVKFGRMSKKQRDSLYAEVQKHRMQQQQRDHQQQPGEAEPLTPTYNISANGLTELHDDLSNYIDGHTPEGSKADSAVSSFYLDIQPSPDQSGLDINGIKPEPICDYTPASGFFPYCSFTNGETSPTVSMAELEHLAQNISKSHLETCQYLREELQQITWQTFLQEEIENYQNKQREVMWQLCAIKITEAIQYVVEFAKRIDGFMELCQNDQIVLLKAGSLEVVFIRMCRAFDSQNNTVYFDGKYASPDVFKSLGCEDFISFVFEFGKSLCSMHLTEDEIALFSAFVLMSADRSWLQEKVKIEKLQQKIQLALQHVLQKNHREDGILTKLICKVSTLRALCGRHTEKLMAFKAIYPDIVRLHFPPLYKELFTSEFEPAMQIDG

MC-38 [2] = test: Antitumor activity against mouse MC38 cells injected C57BL/6 mouse syngenic model assessed as reduction in tumor growth at 10 mg/kg, po administered once daily for 25 days in combination with anti-mouse PD-1 monoclonal antibody at 5 mg/kg, ip; type: functional, organism-based; conditions: time 25.0 day
MC-38 [3] = test: Antitumor activity against mouse MC38 cells injected C57BL/6 mouse syngenic model assessed as reduction in tumor growth at 10 mg/kg, po administered once daily for 25 days; type: functional, organism-based; conditions: time 25.0 day
MC-38 [4] = test: Antitumor activity against mouse MC38 cells injected C57BL/6 mouse syngenic model assessed as reduction in tumor growth at 30 mg/kg, po administered once daily for 25 days; type: functional, organism-based; conditions: time 25.0 day

- Activity [1]: Active
Structure (SMILES): CCS(=O)(=O)c1ccc([C@H](CO)NC(=O)c2ccc3c(c2)cc(Cc2ccc(Cl)cc2C(F)(F)F)n3CCF)cc1
- Activity (MC-38 [2]): Active
- Activity (MC-38 [3]): Active
- Activity (MC-38 [4]): Active
